In patent US20070184020A1, “COMBINATION OF RADIO WAVES WITH PHARMACOLOGICALLY ACTIVE SUBSTANCES” (priority 2004, published 2007):

Tested on: metastatic colorectal carcinoma (mCRC)
Assay: Treatment of carcinomas of the large intestine with cetuximab, alone or combined with electrohyperthermia
Format: in vivo, human
Conditions: patients, cetuximab 400 mg/m^2 initial, 250 mg/m^2 weekly, plus local electrohyperthermia 1 h on three days per week; after 60 days; compared with cetuximab only; FIG. 1
Method: The patients are treated by approaching the electrode(s) as close as possible to the surface of the skin and in that the distance of said electrode(s) to the tumor is as small as possible. The treatment period is one hour on three days per week. It is substantial that neither during nor after the treatment, any side effects can be observed.
Treatment of carcinomas of the large intestine with cetuximab, as well as with cetuximab in combination with electrohyperthermia.
Each group was treated with the monoclonal antibody cetixumab (400 mg/m^2 initial dosage, 250 mg/M^2 weekly dosage) and 2 of the 4 patients were additionally treated with local electrohyperthermia on three days per week (Monday, Wednesday and Friday) for respectively one hour. The treatment was continued during a period of 10 weeks.

cetuximab
CEA (tumor marker): significantly lower
